Assay results as given in PMC7722354, “7-Substituted 2-Nitro-5,6-dihydroimidazo[2,1-b][1,3]oxazines: Novel Antitubercular Agents Lead to a New Preclinical Candidate for Visceral Leishmaniasis” (Journal of Medicinal Chemistry, 2017).

What was measured:
Leishmania infantum = assay: L. inf growth inhibition in mouse macrophages (LMPH); format: cell-based; details: Macrophage, read-out: IC50 L. inf
Trypanosoma cruzi = assay: T. cruzi growth inhibition on MRC-5 cells (LMPH); format: cell-based; details: MRC5, read-out: IC50 T. cruzi
L. infantum = assay: chronic VL infection assay 2 (L. inf hamster model, LMPH); format: in vivo, Leishmania infantum; details: 6.25 mg/kg b.i.d. orally 5 days
Leishmania donovani = assay: microbe, parasite or virus in culture; details: read-out: IC50 L. don
L. donovani = assay: acute VL infection assay (L. don mouse model, LSHTM); format: in vivo; details: Leishmania donovani, po, 120 h; for inhibition in vivo at 6.25 mg/kg: read-out: in vivo efficacy against L. don (mouse), % inhibition, 6.25 mg/kg orally once daily 5 days

## O=[N+]([O-])c1cn2c(n1)O[C@H](COc1ccc(-c3ccc(F)cc3)nc1)CC2
Leishmania infantum
  IC50: 220 nM
Trypanosoma cruzi
  IC50: 290 nM
L. infantum
  % inhibition in target organs: bone marrow: 35.0%
  % inhibition in target organs: liver: 53.1%
  % inhibition in target organs: spleen: 46.7%
Leishmania donovani
  IC50: 80 nM

## CC1(COc2ccc(-c3ccc(F)cc3)cn2)CCn2cc([N+](=O)[O-])nc2O1 (centres unmarked) [compound 61]
Leishmania infantum
  IC50: 97 nM
Trypanosoma cruzi
  IC50: 230 nM

## O=[N+]([O-])c1cn2c(n1)O[C@@H](COc1ccc(-c3ccc(OC(F)(F)F)cc3)nc1)CC2
Leishmania infantum
  IC50: 110 nM
Trypanosoma cruzi
  IC50: 260 nM

## O=[N+]([O-])c1cn2c(n1)OC(COc1ccc(-c3ccc(F)cc3)nc1)CC2 (centres unmarked)
Leishmania infantum
  IC50: 93 nM
Trypanosoma cruzi
  IC50: 270 nM
L. donovani
  ED50: 5.1 mg/kg
L. donovani; liver
  inhibition in vivo at 6.25 mg/kg: 59%
L. donovani; read-out: in vivo efficacy against L. don (mouse), % inhibition, 12.5 mg/kg orally once daily 5 days, liver
  inhibition in vivo at 12.5 mg/kg: 76%

## O=[N+]([O-])c1cn2c(n1)O[C@@H](COc1ccc(-c3ccc(F)cc3)nc1)CC2 [compound 79, (7R)-7-({[6-(4-Fluorophenyl)pyridin-3-yl]oxy}methyl)-2-nitro-6,7-dihydro-5H-imidazo[2,1-b][1,3]oxazine]
Leishmania infantum
  IC50: 80 nM
Trypanosoma cruzi
  IC50: 350 nM
L. donovani; liver
  inhibition in vivo at 6.25 mg/kg: 93%
Leishmania donovani
  IC50: 30 nM

## O=[N+]([O-])c1cn2c(n1)O[C@H](COc1ccc(-c3ccc(OC(F)(F)F)cc3)nc1)CC2
Leishmania infantum
  IC50: 130 nM
Trypanosoma cruzi
  IC50: 130 nM

## O=[N+]([O-])c1cn2c(n1)OC(COc1ccc(-c3ccc(OC(F)(F)F)cc3)nc1)CC2 (centres unmarked) [compound 93]
Leishmania infantum
  IC50: 120 nM
Trypanosoma cruzi
  IC50: 170 nM

## O=[N+]([O-])c1cn2c(n1)OC(COc1ccc(-c3ccc(F)cc3)cn1)CC2 (centres unmarked) [compound 59, 7-({[5-(4-Fluorophenyl)pyridin-2-yl]oxy}methyl)-2-nitro-6,7-dihydro-5H-imidazo[2,1-b][1,3]oxazine]
Leishmania infantum
  IC50: 50 nM
Trypanosoma cruzi
  IC50: 27 nM

## CC1(COc2ccc(-c3ccc(F)cc3)nc2)CCn2cc([N+](=O)[O-])nc2O1 (centres unmarked) [compound 90]
Leishmania infantum
  IC50: 590 nM
Trypanosoma cruzi
  IC50: 260 nM

## O=[N+]([O-])c1cn2c(n1)OC(COc1ccc(-c3ccc(F)cc3F)nc1)CC2 (centres unmarked) [compound 91]
Leishmania infantum
  IC50: 30 nM
Trypanosoma cruzi
  IC50: 130 nM
